Laboratory results published in patent US20150094348A1, “GPR17-MODULATING COMPOUNDS, DIAGNOSTIC AND THERAPEUTIC USES THEREOF” (Centro Cardiologico Monzino S.p.A., priority 2010, published 2015).

Chains of the proteins cited; added tags and fusions are not shown. Residues count along the entry.
UniProt Q13304, 29-367 limits assumed: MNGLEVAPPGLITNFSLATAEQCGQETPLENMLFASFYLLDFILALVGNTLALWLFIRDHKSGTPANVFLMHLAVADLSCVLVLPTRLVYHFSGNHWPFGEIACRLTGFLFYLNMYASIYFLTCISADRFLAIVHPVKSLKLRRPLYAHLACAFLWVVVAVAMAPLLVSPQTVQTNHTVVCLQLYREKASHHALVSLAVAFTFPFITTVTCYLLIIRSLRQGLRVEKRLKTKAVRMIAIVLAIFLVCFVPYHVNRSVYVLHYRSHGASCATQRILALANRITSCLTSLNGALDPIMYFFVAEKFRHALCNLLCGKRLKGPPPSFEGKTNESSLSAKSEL

Tests used:
human receptor GPR17 = target: T1, human receptor GPR17 (Homo sapiens, UniProt Q13304); assay: [35S]GTPγS binding assay on membranes of 1321N1 cells transfected with human GPR17; format: biochemical
T1 construct: expressed in transfected cells; host or cells: human 1321N1 astrocytoma cells, calcium phosphate transfection with pcDNA3.1; plasma membranes used
Protocol: A—The compounds according to the invention were evaluated for their functional activity on GPR17 using a well-known assay for GPCRs, the [^35S]GTPγS binding assay, which is based on the ability of the agonist to increase radioactive GTP binding when a GPCR is activated. The antagonist activity is evaluated according to the ability to counteract the increased [^35S]GTPγS binding induced by the LTC4 reference agonist.
The activation of GPCRs by agonists stimulates the dissociation of GDP from G-protein, thus increasing GTP binding in its place. This increase in GTP binding to G-protein can be quantified in vitro with [^35S]GTPγS. The effect of GPCR activation on [^35S]GTPγS binding is catalytic, because it increases the [^35S]GTPγS binding rate rather than [^35S]GTPγS binding equilibrium. […] For some GPCRs, the binding stimulated by the agonist (ie. the difference between GTP binding in the presence and absence of the agonist) increases with time, peaks and then falls to zero; optimal increases in [^35S]GTPγS binding induced by the agonist are often obtained before equilibrium is attained, rather than at equilibrium. […] The control and transfected cells were homogenised in 5 mM Tris-HCl and 2 mM EDTA (pH 7.4) and centrifuged at 48000 g for 15 min at 4° C. The resulting pellets (plasma membranes) were washed in 50 mM Tris-HCl and 10 mM MgCl2 (pH 7.4) and stored at −80° C. until use.
The Graph-Pad Prism program was used for the analysis and graphic presentation of the [^35S]GTPγS binding data. All the data are shown as the mean±SEM of three different experiments. The data were tested for statistical significance with the paired Student's t test or analysis of variance (one-way ANOVA), as appropriate. When significant differences were observed, the Newman-Keuls multiple comparison test (one-way ANOVA) was performed. A value of P<0.05 was considered significant.

[1] = tested on: oligodendrocyte precursor cells (OPCs); assay: Pro-myelinating activity assay on oligodendrocyte precursor cell (OPC) cultures (MBP-positive cells); format: cell-based, Sprague-Dawley rat

`COc1ccc(CNC(=O)C(c2ccc(O)cc2)N(Cc2ccco2)C(=O)c2snc(C(N)=O)c2N)cc1` (centres unmarked) [Compound (III)] was tested, and the “% Emax vs standard” value (human receptor GPR17) was 89.6%, the EC50 (human receptor GPR17) was 1.18 ± 0.08 nM and the “efficacy compared with reference compound LTC4 / agonist character, in words” value (human receptor GPR17) was “may act as a partial agonist”. For the same molecule, the Emax (human receptor GPR17; in % (unit assumed)) was 129.7 ± 0.7 and the “pro-myelinating activity, in words (mature cells expressing MBP)” value [1] was “most active”.
